## Curated experimental data: logP (octanol/water) values

Source: data files of OPERA 2.9 (Mansouri et al.), github.com/kmansouri/OPERA.

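The numbers are reported measurements, compiled and curated for the OPERA QSAR suite. The files give a single number for a compound and property, which may rest on several reports. Conditions of the individual experiments are not part of the data. Where a salt, mixture or single isomer is drawn, the source does not say that exactly this form was tested. Unmarked limits or estimates from the upstream databases cannot be ruled out.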

The octanol-water partition coefficient is given as log10; larger values mean a more lipophilic compound. "via" names the databases from which the curators took the value.

| SMILES | logP (octanol/water) | via |
|---|---|---|
| [C-]#[O+] | 0.83 | PubChem |
| CC(C)(C)OOC(C)(C)C | 3.2 | PubChem, eChemPortal |
| COP(=S)(S)OC | -0.7 | eChemPortal |
| CC[n+]1c(-c2ccccc2)c2cc(N)ccc2c2ccc(N)cc21.[Br-] | -1.1 | PubChem |
| CN(CCO)CCO | -1.08 | PubChem, eChemPortal |
| CC1OC(C[N+](C)(C)C)CC1O.[I-] (stereo unspecified) | -2.95 | OCHEM |
| COc1cccc(C[N+](C)(C)C)c1.[Br-] | -1.9 | OCHEM |
| CCCC[N+](CCCC)(CCCC)CCCC.[OH-] | 1.518 | eChemPortal |
| CC1(C)C(=O)NC(=S)NC1=O | 0.5 | OCHEM |
| O=C(CCCCl)c1ccc(F)cc1 | 2.84 | eChemPortal |
| CCC(C)OC(=O)OOC(=O)OC(C)CC (stereo unspecified) | 3.6 | eChemPortal |
| O=C(c1ccc(Cl)cc1)c1ccccn1 | 2.61 | OCHEM |
| CCOC(=S)[S-].[Na+] | -2.48 | eChemPortal |
| Cc1cccnc1C[N+](C)(C)C.[Br-] | -2.9 | OCHEM |
| FC(F)=C(F)C(F)=C(F)F | 2.24 | eChemPortal |
| CNC(=O)C(C#N)=c1[nH]c(=C2C(=O)NC(=O)NC2=O)c2ccccc12 | 1.4 | eChemPortal |
| CCCCCCC(C)N (stereo unspecified) | 2.82 | OCHEM |
| C[n+]1ccc(-c2ccccc2)cc1.[I-] | -2.28 | OCHEM |
| CCC(=O)OC(Cc1ccccc1)(c1cccc(OC)c1)C(C)CN(C)C.O=C(O)CC(=O)O (stereo unspecified) | 3.83 | OCHEM |
| Oc1ccc(Cl)cc1O | 1.68 | OCHEM |
| C/C(=N\NC(=O)Nc1cc(F)cc(F)c1)c1ncccc1C(=O)[O-].[Na+] | 0.255 | eChemPortal |
| CC(N=C=S)c1ccccc1 (stereo unspecified) | 3.46 | OCHEM |
| Cl.N=C(N)NN | -3.55 | eChemPortal |
| CCOP(=O)(OCC)SCS(=O)C(C)(C)C (stereo unspecified) | 2.66 | OCHEM |
| CC(O)CN1CCN(CC(=O)[O-])CCN(CC(=O)[O-])CCN(CC(=O)[O-])CC1.[Gd+3] (stereo unspecified) | -3.68 | PubChem |
| CCCCCCCCCCCCCCCC[n+]1ccccc1.[Br-] | 1.83 | PubChem |
| Nc1ccc2c(c1)[C@@]13CCN4CC5=CCOC6CC(=O)N2C1[C@H]6[C@H]5C[C@H]43 (stereo not given in full) | 0.54 | OCHEM |
| CCCCOCCOC(C)=O | 1.51 | PubChem, eChemPortal |
| N#CNC1=NCCS1 | -0.06 | eChemPortal |
| COc1c(C[C@@H](C)OC(=O)Oc2ccc(O)cc2)c2c3c(C[C@@H](C)OC(=O)c4ccccc4)c(OC)c(=O)c4c(O)cc(OC)c(c5c(OC)cc(O)c(c1=O)c52)c43 | 7.65 | PubChem |
| CNC(=O)c1cc(N2CC2)c([N+](=O)[O-])cc1[N+](=O)[O-] | 0.44 | OCHEM |
| CC(=O)O[C@H]1[C@@H](N2CCCC2)C[C@H]2[C@@H]3CC[C@H]4C[C@H](O)[C@@H](N5CCOCC5)C[C@]4(C)[C@H]3CC[C@@]21C | 3.9 | eChemPortal |
| NC(=O)[O-].[NH4+] | -0.47 | eChemPortal |
| CC1CN1 (stereo unspecified) | 0.13 | PubChem |
| Clc1ccc(-c2cc(Cl)c(Cl)c(Cl)c2)cc1Cl | 6.89 | OCHEM |
| COCCOCCO | -0.7 | PubChem, eChemPortal |
| Nc1ccc([N+](=O)[O-])cc1[N+](=O)[O-] | 1.89 | OCHEM, eChemPortal |
| COc1ccc(N)c(N)c1.[Cl][Pt][Cl] | -0.315 | OCHEM |
| Cc1cc(Cl)ccc1N | 2.4 | OCHEM |
| CCC(C)(C)c1ccc(O)cc1 | 3.83 | OCHEM, OFMPub, PubChem, eChemPortal |
| CC(=O)OC(C)=O | -0.27 | PubChem |
| COc1cc(CCN)ccc1O | -0.08 | OCHEM |
| O=[N+]([O-])C(Br)(CO)CO | 0.21 | OCHEM, PubChem, eChemPortal |

Excerpt, the opening 6 entries:

| SMILES | logP (octanol/water) | via |
|---|---|---|
| [C-]#[O+] | 0.83 | PubChem |
| CC(C)(C)OOC(C)(C)C | 3.2 | PubChem, eChemPortal |
| COP(=S)(S)OC | -0.7 | eChemPortal |
| CC[n+]1c(-c2ccccc2)c2cc(N)ccc2c2ccc(N)cc21.[Br-] | -1.1 | PubChem |
| CN(CCO)CCO | -1.08 | PubChem, eChemPortal |
| CC1OC(C[N+](C)(C)C)CC1O.[I-] (stereo unspecified) | -2.95 | OCHEM |